Where “and” joins values, the source holds several entries; their conditions need not be identical. Equal values may be shown once.
Target: 5-hydroxytryptamine receptor 2A (Homo sapiens, UniProt P28223)

Chains of the proteins cited; added tags and fusions are not shown.
UniProt P28223, whole entry: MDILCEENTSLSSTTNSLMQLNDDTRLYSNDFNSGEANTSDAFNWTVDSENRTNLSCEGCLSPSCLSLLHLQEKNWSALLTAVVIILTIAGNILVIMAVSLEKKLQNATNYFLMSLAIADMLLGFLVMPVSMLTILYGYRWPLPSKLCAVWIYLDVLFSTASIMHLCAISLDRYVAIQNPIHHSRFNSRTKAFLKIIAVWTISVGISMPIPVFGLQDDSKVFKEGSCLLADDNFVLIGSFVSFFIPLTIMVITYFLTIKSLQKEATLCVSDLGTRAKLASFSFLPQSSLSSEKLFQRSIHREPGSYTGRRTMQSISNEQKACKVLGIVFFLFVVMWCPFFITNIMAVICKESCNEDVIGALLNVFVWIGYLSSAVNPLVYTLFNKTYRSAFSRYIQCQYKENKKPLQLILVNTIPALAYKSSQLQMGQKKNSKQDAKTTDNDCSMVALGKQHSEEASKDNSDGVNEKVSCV

## Clc1cccc(N2CCNCC2)c1 [mCPP]
  Ki: 74 nM and 212 nM

From BindingDB's records for doi:10.1002/(SICI)1098-2396(200002)35:2<144::AID-SYN7>3.0.CO;2-K (Albany Medical College, 2000)
